Source: patent US8017630B2 (priority 2004, dated 2011)

The chains behind the UniProt entries cited, without tags or fusion partners. Where a name states a change or a piece, a line headed by the entry shows the natural chain unless it says otherwise.
UniProt P35372, whole entry, looked up: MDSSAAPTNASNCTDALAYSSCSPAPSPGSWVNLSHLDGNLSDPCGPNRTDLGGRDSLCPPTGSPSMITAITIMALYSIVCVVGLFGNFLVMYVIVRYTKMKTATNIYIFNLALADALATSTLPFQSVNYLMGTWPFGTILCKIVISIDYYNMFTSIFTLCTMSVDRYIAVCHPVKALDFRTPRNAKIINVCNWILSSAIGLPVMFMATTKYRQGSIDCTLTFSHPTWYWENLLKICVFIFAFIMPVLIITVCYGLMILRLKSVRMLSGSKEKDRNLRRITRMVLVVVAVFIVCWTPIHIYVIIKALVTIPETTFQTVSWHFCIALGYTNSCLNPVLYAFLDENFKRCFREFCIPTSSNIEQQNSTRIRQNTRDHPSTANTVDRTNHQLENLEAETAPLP
UniProt P41146: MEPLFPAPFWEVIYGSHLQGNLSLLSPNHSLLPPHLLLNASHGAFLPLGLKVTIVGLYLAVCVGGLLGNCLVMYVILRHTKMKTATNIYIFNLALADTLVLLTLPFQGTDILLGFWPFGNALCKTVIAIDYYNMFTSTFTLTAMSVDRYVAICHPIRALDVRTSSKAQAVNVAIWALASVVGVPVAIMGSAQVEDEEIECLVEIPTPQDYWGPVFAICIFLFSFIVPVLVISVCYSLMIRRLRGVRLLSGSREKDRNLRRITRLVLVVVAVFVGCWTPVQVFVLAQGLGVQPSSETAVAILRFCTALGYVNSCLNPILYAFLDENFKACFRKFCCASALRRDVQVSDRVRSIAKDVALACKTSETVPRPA

Experiments:
mice = test: Tail flick test in mice (analgesia); conditions: % of maximum possible antinociceptive effect; for TFMiv % (10 mg/kg): 10 mg/kg intravenous; for TFMiv % [1 mg/kg]: 1 mg/kg intravenous
human μ-opiate receptor = human μ-opiate receptor (Homo sapiens, UniProt P35372); test: μ-opiate receptor binding assay with [3H]-naloxone; conditions: for ORμNal % 1 μm: % inhibition of specific [3H]-naloxone binding at 1 μmol/l; for Ki: read-out: ORμNal Ki, Ki from IC50 by Cheng-Prusoff, [3H]-naloxone, CHO-K1 membranes
ORL1 receptor = ORL1 receptor (Homo sapiens, UniProt P41146); test: ORL1 receptor binding assay with 3H-nociceptin/orphanin FQ; conditions: % inhibition at c=1 μM; membranes from recombinant CHO-ORL1 cells
5HT uptake = test: Serotonin reuptake in rat brain synaptosomes; format: biochemical; conditions: synaptosomes from medulla+pons of male rat brains
NA uptake = test: Noradrenaline reuptake in rat brain synaptosomes; format: biochemical; conditions: synaptosomes from hypothalamus of male rat brains

| Compound | ORμNal % 1 μm (human μ-opiate receptor) [%] | ORL1% 1 μM (ORL1 receptor) [%] | Ki (human μ-opiate receptor) [nM] | further results |
| --- | --- | --- | --- | --- |
| COC(=O)[C@H](Cc1c[nH]c2ccccc12)NC(=O)CC1CCC(c2ccccc2)(N(C)C)CC1.Cl (stereo partly shown) | 97 | 94 |  | TFMiv % (10 mg/kg) (mice): 89 (10 mg/kg) % |
| CN(C)C1(c2ccccc2)CCC(=CC(=O)Nc2ccc(F)cc2)CC1 (stereo not shown) |  |  | 21 |  |
| CN(C)C1(c2cccc(F)c2)CCC(=CC(=O)NCCCc2ccccc2)CC1.Cl (stereo not shown) | 102 | 96 |  |  |
| CN(C)C1(c2ccccc2)CCC(=CC(=O)NCCCc2ccccc2)CC1.Cl (stereo not shown) | 101.00 | 90.00 |  |  |
| CN(C)C1(c2ccccc2)CCC(=CC(=O)NCCCc2c[nH]c3ccccc23)CC1 (stereo not shown) |  |  | 4.1 |  |
| CN(C)C1(c2ccccc2)CCC(=CC(=O)NCCc2ccc(F)cc2)CC1 (stereo not shown) |  |  | 5.7 |  |
| CC(Cc1c[nH]c2ccccc12)NC(=O)C=C1CCC(c2ccccc2)(N(C)C)CC1 (single isomer, unassigned) |  |  | 1.4 |  |
| CN(C)C1(c2ccccc2)CCC(=CC(=O)NCc2ccccc2C(F)(F)F)CC1 (stereo not shown) | 104.00 | 84.00 | 2.8 | TFMiv % [1 mg/kg] (mice): 99% |
| CN(C)C1(c2ccccc2)CCC(=CC(=O)NCCCCCc2c[nH]c3ccccc23)CC1 (stereo not shown) |  |  | 8 |  |
| CN(C)C1(c2ccccc2)CCC(CC(=O)NCCCCCc2c[nH]c3ccccc23)CC1.Cl (stereo not shown) | 104 | 98.00 |  |  |
| CN(C)C1(c2ccccc2)CCC(=CC(=O)NCCCCc2ccccc2)CC1.Cl (stereo not shown) | 96.00 | 93.00 |  | TFMiv % [1 mg/kg] (mice): 74% |
| CN(C)C1(c2ccccc2)CCC(=CC(=O)NCCCCCCc2c[nH]c3ccccc23)CC1.Cl (stereo not shown) | 102 | 90 |  |  |
| CN(C)C1(c2ccc(F)cc2)CCC(=CC(=O)NCCCc2ccccc2)CC1 (stereo not shown) |  |  | 7.5 |  |
| CN(C)C1(c2ccccc2)CCC(=CC(=O)NCCCCCc2c[nH]c3ccccc23)CC1.Cl (stereo not shown) | 100 | 94 |  |  |
| CN(C)C1(c2cccc(F)c2)CCC(=CC(=O)NCCc2c[nH]c3ccccc23)CC1.Cl (stereo not shown) | 97 | 98 |  | TFMiv % [1 mg/kg] (mice): 42% |
| CN(C)C1(c2ccccn2)CCC(=CC(=O)NCCc2c[nH]c3ccccc23)CC1.Cl (stereo not shown) | 106 | 92 |  |  |
| CC(Cc1c[nH]c2ccccc12)NC(=O)C=C1CCC(c2ccccc2)(N(C)C)CC1.Cl (single isomer, unassigned) | 97.5 | 98.5 |  | TFMiv % [1 mg/kg] (mice): 69% |
| CN(C)C1(c2ccccc2)CCC(CC(=O)NCCCCCCc2c[nH]c3ccccc23)CC1 (stereo not shown) |  |  | 9.8 |  |
| 2-(Dimethylamino-4-phenylcyclohexylidene)-N-[2-(1H-indol-3-yl)ethyl]acetamide hydrochloride | 100.5 | 98.00 | 0.5 |  |
| CN(C)C1(c2ccccc2)CCC(=CC(=O)NCCCc2ccccc2)CC1 (stereo not shown) |  |  | 3.1 |  |
| CN(C)C1(c2ccccc2)CCC(=CC(=O)NCCc2ccccc2)CC1.Cl (stereo not shown) | 100.00 | 84.00 |  |  |
| CN(C)C1(c2ccccc2)CCC(CC(=O)NCc2c[nH]c3ccccc23)CC1 (stereo not shown) |  |  | 8.6 |  |
| CN(C)C1(c2ccccc2)CCC(=CC(=O)NCc2ccccc2)CC1 (stereo not shown) |  |  | 1.1 |  |

| Compound | ORμNal % 1 μm (human μ-opiate receptor) [%] | ORL1% 1 μM (ORL1 receptor) [%] | Ki (human μ-opiate receptor) [nM] | further results |
| --- | --- | --- | --- | --- |
| CN(C)C1(c2cccc(F)c2)CCC(=CC(=O)NCCc2c[nH]c3ccccc23)CC1 (stereo not shown) |  |  | 1.6 |  |
| CN(C)C1(c2ccccc2)CCC(CC(=O)NCCc2ccccc2)CC1.Cl (stereo not shown) | 97 | 91.00 |  | TFMiv % (10 mg/kg) (mice): 93 (10 mg/kg) % |
| CC(Cc1c[nH]c2ccccc12)NC(=O)CC1CCC(c2ccccc2)(N(C)C)CC1.Cl (stereo not shown) |  |  |  | 5HT uptake % (10) (5HT uptake): 83%; NA uptake % (10) (NA uptake): 55% |
| CC(Cc1c[nH]c2ccccc12)NC(=O)CC1CCC(c2cccc(F)c2)(N(C)C)CC1 (stereo not shown) |  |  | 1.3 |  |
| CN(C)C1(c2ccccc2)CCC(=CC(=O)NCCCCCCc2c[nH]c3ccccc23)CC1 (stereo not shown) |  |  | 37 |  |
| COC(=O)C(Cc1c[nH]c2ccccc12)NC(=O)C=C1CCC(c2ccccc2)(N(C)C)CC1 (stereo not shown) |  |  | 1.2 |  |
| CN(C)C1(c2ccccn2)CCC(=CC(=O)NCCCc2ccccc2)CC1.Cl (stereo not shown) | 83 | 46 |  |  |
| CN(C)C1(c2ccccc2)CCC(=CC(=O)NCCCCc2c[nH]c3ccccc23)CC1.Cl (stereo not shown) | 101 | 92 |  |  |
| CN(C)C1(c2ccccc2)CCC(CC(=O)NCCc2ccccc2)CC1 (stereo not shown) |  |  | 2.6 |  |
| CN(C)C1(c2ccccc2)CCC(=CC(=O)NCCc2ccccc2)CC1 (stereo not shown) |  |  | 8.2 |  |
| CN(C)C1(c2ccccc2)CCC(CC(=O)NCc2ccccc2C(F)(F)F)CC1 (stereo not shown) | 91.5 | 63.00 | 5.9 |  |
| CN(C)C1(c2ccccc2)CCC(CC(=O)NCCc2c[nH]c3ccccc23)CC1.Cl (stereo not shown) |  |  |  | 5HT uptake % (10) (5HT uptake): 85%; NA uptake % (10) (NA uptake): 78.5% |
| CN(C)C1(c2ccccc2)CCC(CC(=O)NCCCCc2c[nH]c3ccccc23)CC1.Cl (stereo not shown) | 99 | 99.00 |  |  |
| CN(C)C1(c2ccccc2)CCC(=CC(=O)NCCCc2c[nH]c3ccccc23)CC1.Cl (stereo not shown) | 98 | 88 |  | 5HT uptake % (10) (5HT uptake): 91%; NA uptake % (10) (NA uptake): 95% |
| CN(C)C1(c2ccccc2)CCC(CC(=O)NCCCc2ccccc2)CC1 (stereo not shown) | 96 | 97.00 | 2.4 |  |
| CN(C)C1(c2ccccc2)CCC(=CC(=O)NCCCCc2ccccc2)CC1 (stereo not shown) |  |  | 1.4 |  |
| COC(=O)[C@H](Cc1c[nH]c2ccccc12)NC(=O)C=C1CCC(c2ccccc2)(N(C)C)CC1 (stereo partly shown) | 101.00 | 94.00 | 1.4 |  |
| CN(C)C1(c2ccc(F)cc2)CCC(CC(=O)NCCc2c[nH]c3ccccc23)CC1 (stereo not shown) |  |  | 1.2 |  |
| CC(Cc1c[nH]c2ccccc12)NC(=O)CC1CCC(c2cccc(F)c2)(N(C)C)CC1.Cl (stereo not shown) | 99 | 99.00 |  |  |
| CN(C)C1(c2ccc(F)cc2)CCC(CC(=O)NCCc2c[nH]c3ccccc23)CC1.Cl (stereo not shown) | 106 | 89.00 |  |  |
| CN(C)C1(c2ccccc2)CCC(=CC(=O)NCc2ccc(F)cc2)CC1.Cl (stereo not shown) | 99.00 | 88.00 |  | TFMiv % [1 mg/kg] (mice): 81% |
| CN(C)C1(c2ccc(F)cc2)CCC(=CC(=O)NCCCc2ccccc2)CC1.Cl (stereo not shown) | 93 | 49 |  |  |
| CN(C)C1(c2ccccc2)CCC(=CC(=O)Nc2ccc(F)cc2)CC1.Cl (stereo not shown) |  | 37.00 |  | TFMiv % (10 mg/kg) (mice): 100 (10 mg/kg) % |

| Compound | ORμNal % 1 μm (human μ-opiate receptor) [%] | ORL1% 1 μM (ORL1 receptor) [%] | Ki (human μ-opiate receptor) [nM] | further results |
| --- | --- | --- | --- | --- |
| CN(C)C1(c2ccccc2)CCC(=CC(=O)NCc2ccc(F)cc2)CC1 (stereo not shown) |  |  | 4.3 |  |
| CN(C)C1(c2ccccn2)CCC(=CC(=O)NCCCc2ccccc2)CC1 (stereo not shown) |  |  | 9.1 |  |
| CN(C)C1(c2ccccc2)CCC(=CC(=O)NCc2ccccc2)CC1.Cl (stereo not shown) | 103.00 | 85.00 |  | TFMiv % [1 mg/kg] (mice): 93% |
| CN(C)C1(c2ccc(F)cc2)CCC(=CC(=O)NCCc2c[nH]c3ccccc23)CC1 (stereo not shown) |  |  | 5.2 |  |
| COC(=O)[C@H](Cc1c[nH]c2ccccc12)NC(=O)CC1CCC(c2ccccc2)(N(C)C)CC1 (stereo partly shown) |  |  | 2.8 |  |
| CN(C)C1(c2cccc(F)c2)CCC(=CC(=O)NCCCc2ccccc2)CC1 (stereo not shown) |  |  | 1.2 |  |
| COC(=O)C(Cc1c[nH]c2ccccc12)NC(=O)C=C1CCC(c2ccccc2)(N(C)C)CC1.Cl (stereo not shown) | 100.5 | 97.00 |  | TFMiv % [1 mg/kg] (mice): 62% |
| CN(C)C1(c2ccccc2)CCC(CC(=O)NCCCCCc2c[nH]c3ccccc23)CC1 (stereo not shown) |  |  | 1.8 |  |
| CN(C)C1(c2ccccc2)CCC(CC(=O)NCCCCCCc2c[nH]c3ccccc23)CC1.Cl (stereo not shown) | 104 | 91.00 |  |  |
| CN(C)C1(c2ccccc2)CCC(CC(=O)NCCCCc2ccccc2)CC1.Cl (stereo not shown) |  |  |  | 5HT uptake % (10) (5HT uptake): 81%; NA uptake % (10) (NA uptake): 86% |
| CN(C)C1(c2ccccc2)CCC(CC(=O)NCc2c[nH]c3ccccc23)CC1.Cl (stereo not shown) | 93.5 | 66.00 |  |  |
| CN(C)C1(c2ccc(F)cc2)CCC(=CC(=O)NCCc2c[nH]c3ccccc23)CC1.Cl (stereo not shown) | 81 | 81 |  |  |
| CN(C)C1(c2ccccn2)CCC(=CC(=O)NCCc2c[nH]c3ccccc23)CC1 (stereo not shown) |  |  | 2.7 |  |
| CN(C)C1(c2ccccc2)CCC(CC(=O)NCCCc2c[nH]c3ccccc23)CC1 (stereo not shown) |  |  | 5.7 |  |
| CN(C)C1(c2ccccc2)CCC(=CC(=O)NCCc2ccc(F)cc2)CC1.Cl (stereo not shown) | 105.00 | 93.00 |  |  |
| CC(Cc1c[nH]c2ccccc12)NC(=O)C=C1CCC(c2ccccc2)(N(C)C)CC1 (stereo not shown) |  |  |  | 5HT uptake % (10) (5HT uptake): 92%; NA uptake % (10) (NA uptake): 101% |
| CN(C)C1(c2ccccc2)CCC(=CC(=O)NCCCCc2c[nH]c3ccccc23)CC1 (stereo not shown) |  |  | 5.2 |  |
| CN(C)C1(c2ccccc2)CCC(=CC(=O)NCc2c[nH]c3ccccc23)CC1.Cl (stereo not shown) | 96.5 | 85 |  |  |
| CN(C)C1(c2ccccc2)CCC(=CC(=O)NCc2c[nH]c3ccccc23)CC1 (stereo not shown) |  |  | 8.9 |  |
| CN(C)C1(c2ccccc2)CCC(CC(=O)NCCCc2c[nH]c3ccccc23)CC1.Cl (stereo not shown) | 97 | 88.00 |  |  |
| CN(C)C1(c2ccccc2)CCC(CC(=O)N[C@@H](Cc2c[nH]c3ccccc23)C(=O)O)CC1 (stereo partly shown) | 95 | 72.00 | 17 |  |
| CN(C)C1(c2ccccc2)CCC(CC(=O)NCCCCc2c[nH]c3ccccc23)CC1 (stereo not shown) |  |  | 1.3 |  |
